From PubChem BioAssay AID588391 (Broad Institute, 2011)
This is a selection; strong and weak results do not stand in their true shares. Activity calls are given as the source filed them.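 The calls were made as follows: active = mean inhibition across replicates of 30% or more, whatever share of single replicates reach that level; inconclusive = mean inhibition below 30% while every single replicate reaches 30%; inactive = the rest.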

Sequences of proteins named here, by UniProt entry; tags and fusion partners are left off.
UniProt P07237, whole entry: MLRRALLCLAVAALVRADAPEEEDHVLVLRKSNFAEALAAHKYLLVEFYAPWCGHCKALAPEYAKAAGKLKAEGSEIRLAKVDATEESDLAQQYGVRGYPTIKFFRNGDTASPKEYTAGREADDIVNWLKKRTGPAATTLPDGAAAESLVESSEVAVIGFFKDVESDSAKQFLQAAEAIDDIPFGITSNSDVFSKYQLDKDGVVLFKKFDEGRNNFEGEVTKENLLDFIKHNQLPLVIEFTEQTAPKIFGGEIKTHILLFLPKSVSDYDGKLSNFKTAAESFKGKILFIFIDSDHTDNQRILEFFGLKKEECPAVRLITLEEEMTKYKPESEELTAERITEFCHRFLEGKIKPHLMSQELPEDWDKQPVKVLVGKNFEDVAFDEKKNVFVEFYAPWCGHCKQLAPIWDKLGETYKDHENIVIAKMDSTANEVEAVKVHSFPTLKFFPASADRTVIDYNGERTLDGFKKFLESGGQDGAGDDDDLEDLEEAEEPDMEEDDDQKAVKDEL

Molecular target: Protein disulfide-isomerase (Homo sapiens) (UniProt P07237)
Assay: blockers of PDI-driven insulin aggregation – biochemical, turbidity, single point, plate reader, primary screen (AID 588391);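 also: absorbance from insulin aggregation driven by PDI reduction with DTT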
Conditions: A650, 90 min, at 10 µM, hits give high values

Compound | inhibition
CCC(=O)N(c1ccccc1)C1(COC)CCN(CCc2cccs2)CC1 | inactive: 2.94%
CCC(=O)N(c1ccccc1)C1(COC)CCN(CCn2nnn(CC)c2=O)CC1 | inactive: 3.86%
